According to patent US20180339016A1 (priority 2015, published 2018):

Columns and labels:
CD alpha-helical content = type: physicochemical; conditions: membrane conditions
Human red blood cells [1] = test: Hemolysis assay (MHC); type: cell-based; conditions: for MHC [μM] (minimum hemolytic concentration): peptide concentration required for 10% hemolysis in hRBCs
Experimental: Cytotoxicity for mammalian cells was evaluated by a hemolysis assay. Human red blood cells were washed three times with PBS and suspended in PBS buffer to 5 v/v % to make 5% hematocrit. The peptide was diluted with 2-fold PBS, and then 5% hematocrit was added thereto. The sample was incubated in a 37° C. incubator for 3 hours and centrifuged at 1400 rpm for 5 minutes. The supernatant was transferred to a flat-bottom 96-well plate, and the UV absorbance at 405 nm (background 700 nm) was measured. As a positive control, distilled water was used, and as a negative control, PBS was used.

Human red blood cells [2] = conditions: previously examined peptide; cited from earlier work

Row | Sequence | MHC [μM] (minimum hemolytic concentration) (Human red blood cells [1]) | also measured
1 | KLLKLLKKDLKLLK [KL L9D] |  | alpha-helical content (CD alpha-helical content): 50%
2 | KLLKLLKKLLKLLK | 1.25 µM | 
3 | KLLKLLKKLLKLPK [KL-L13P] | 40 µM | 
4 | KLLKLLKKLLKPLK [KL-L12P] | 320 µM | 
5 | KLLKLLKKLPKLLK [KL-L10P] | 120 µM | 
6 | KLLKLLKKPLKLLK [KL-L9P] | 1300 µM | alpha-helical content (CD alpha-helical content): 70%
7 | KLLKLLKPLLKLLK [KL-K8P] | 1.2 µM | 
8 | KLLKLLPKLLKLLK [KL-K7P] | 1.2 µM | 
9 | KLLKLPKKLLKLLK [KL-L6P] | 1300 µM | 
10 | KLLKPLKKLLKLLK [KL-L5P] | 160 µM | 
11 | KLPKLLKKLLKLLK [KL-L3P] | 40 µM | 
12 | KPLKLLKKLLKLLK [KL-L2P] | 20 µM | 
13 | LKKLLKLLKKLLKL | 0.3 µM | 
14 | LKKLLKLLKKLPKL [LK-L12P] | 160 µM | 
15 | LKKLLKLLKKPLKL [LK-L11P] | >1280 µM | 
16 | LKKLLKLLKKPPKL [LK-L11PL12P] | >1280 µM | 

Row | Sequence | MHC [μM] (minimum hemolytic concentration) (Human red blood cells [1]) | also measured
17 | LKKLLKLLKPLLKL [LK-K10P] | 0.60 µM | 
18 | LKKLLKLLPKLLKL [LK-K9P] | 0.60 µM | 
19 | LKKLLKLPKKLLKL [LK-L8P] | 1280 µM | hemolysis (Human red blood cells [1]; at a concentration of at least 100 microM): no hemolysis
20 | LKKLLKLPKKPLKL [LK-L8PL11P] | >1280 µM | 
21 | LKKLLKPLKKLLKL [LK-L7P] | 160 µM | 
22 | LKKLLKPLKKPLKL [LK-L7PL11P] | >1280 µM | 
23 | LKKLLKPPKKLLKL [LK-L7PL8P] | >1280 µM | alpha-helical content (CD alpha-helical content): 60%
24 | LKKLLPLLKKLLKL [LK-K6P] | 0.60 µM | 
25 | LKKLPKLLKKLLKL [LK-L5P] | 160 µM | 
26 | LKKLPKLLKKPLKL [LK-L5PL11P] | >1280 µM | 
27 | LKKLPKLPKKLLKL [LK-L5PL8P] | >1280 µM | 
28 | LKKPLKLLKKLLKL [LK-L4P] | 160 µM | 
29 | LKKPLKLLKKPLKL [LK-L4PL11P] | >1280 µM | 
30 | LKKPLKLPKKLLKL [LK-L4PL8P] | >1280 µM | 
31 | LKKPPKLLKKLLKL [LK-L4PL5P] | >1280 µM | 
32 | RAGLQFPVGRVHRLLRK [buforin 5-20] |  | hemolytic activity (Human red blood cells [2]): no hemolytic activity
